{
  "source": "ChEMBL document CHEMBL2046432",
  "about": "“Novel 5-substituted benzyloxy-2-arylbenzofuran-3-carboxylic acids as calcium activated chloride channel inhibitors” (Bioorg Med Chem, 2012)",
  "target": "T1, Anoctamin-1 (Homo sapiens, UniProt Q5XXA6)",
  "T1 sequence (Q5XXA6 whole entry)": "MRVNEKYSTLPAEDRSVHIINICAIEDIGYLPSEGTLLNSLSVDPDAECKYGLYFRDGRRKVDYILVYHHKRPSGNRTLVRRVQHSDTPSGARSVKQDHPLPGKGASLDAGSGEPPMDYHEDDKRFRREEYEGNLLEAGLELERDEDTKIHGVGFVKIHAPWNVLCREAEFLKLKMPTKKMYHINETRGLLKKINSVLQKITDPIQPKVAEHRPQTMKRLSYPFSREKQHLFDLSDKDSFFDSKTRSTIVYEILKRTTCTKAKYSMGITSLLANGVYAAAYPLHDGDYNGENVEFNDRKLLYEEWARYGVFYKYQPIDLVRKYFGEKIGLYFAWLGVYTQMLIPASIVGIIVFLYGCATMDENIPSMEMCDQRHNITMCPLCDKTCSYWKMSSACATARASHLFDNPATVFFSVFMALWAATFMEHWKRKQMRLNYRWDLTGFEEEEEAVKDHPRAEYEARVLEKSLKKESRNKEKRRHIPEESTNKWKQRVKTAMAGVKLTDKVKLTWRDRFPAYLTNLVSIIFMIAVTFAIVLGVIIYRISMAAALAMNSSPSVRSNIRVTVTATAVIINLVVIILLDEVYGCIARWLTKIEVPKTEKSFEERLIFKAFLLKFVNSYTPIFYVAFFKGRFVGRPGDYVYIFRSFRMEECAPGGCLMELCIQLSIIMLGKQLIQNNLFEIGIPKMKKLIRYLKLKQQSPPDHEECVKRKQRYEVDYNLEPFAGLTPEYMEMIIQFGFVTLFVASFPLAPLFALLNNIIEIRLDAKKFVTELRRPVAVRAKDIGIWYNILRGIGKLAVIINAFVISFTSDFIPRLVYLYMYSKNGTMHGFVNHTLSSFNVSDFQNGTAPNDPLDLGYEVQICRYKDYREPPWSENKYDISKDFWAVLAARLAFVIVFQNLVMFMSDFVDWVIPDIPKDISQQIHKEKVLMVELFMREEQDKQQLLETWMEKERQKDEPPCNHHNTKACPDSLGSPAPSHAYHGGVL",
  "test": "Inhibition of human TMEM16A transfected in FRT cells assessed as iodide influx using YFP-F46L/H148Q/I152L halide sensor after 10 mins by spectrofluorometric analysis",
  "format": "cell-based",
  "summary_of_the_method": "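FRT cells stably co-expressing TMEM16A and YFP-F46L/H148Q/I152L, plated 20,000 cells/well, cultured 2 days. Washed in PBS, compounds added at several concentrations for 10 min. Fluorescence recorded 2 s baseline, then 140 mM iodide plus ATP (200 μM) solution added to raise calcium. Initial iodide influx rate fitted by nonlinear regression; IC50 mean ± S.E., n = 3.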",
  "data": [
    {"smiles": "Cc1ccc(-c2oc3ccc(OCc4c(F)cccc4F)cc3c2C(=O)O)cc1", "values": [
      {"measurement": "IC50", "value": 23, "unit": "µM"}
    ]},
    {"smiles": "Cc1ccc(-c2oc3ccc(OCc4ccc(F)c(F)c4)cc3c2C(=O)O)cc1", "values": [
      {"measurement": "IC50", "value": 9, "unit": "µM"}
    ]},
    {"smiles": "O=C(O)c1c(-c2ccc3ccccc3c2)oc2ccc(OCc3cccc(C(F)(F)F)c3)cc12", "values": [
      {"measurement": "IC50", "value": 10.4, "unit": "µM"}
    ]},
    {"smiles": "O=C(O)c1c(-c2ccc3ccccc3c2)oc2ccc(OCc3ccccc3Br)cc12", "values": [
      {"measurement": "IC50", "value": 5.2, "unit": "µM"}
    ]}
  ]
}
